Consider two compounds from patent US20260220796A1 (published 2026).

By UniProt entry, the sequences of proteins in these tests, tags left out.
UniProt P03372, whole entry: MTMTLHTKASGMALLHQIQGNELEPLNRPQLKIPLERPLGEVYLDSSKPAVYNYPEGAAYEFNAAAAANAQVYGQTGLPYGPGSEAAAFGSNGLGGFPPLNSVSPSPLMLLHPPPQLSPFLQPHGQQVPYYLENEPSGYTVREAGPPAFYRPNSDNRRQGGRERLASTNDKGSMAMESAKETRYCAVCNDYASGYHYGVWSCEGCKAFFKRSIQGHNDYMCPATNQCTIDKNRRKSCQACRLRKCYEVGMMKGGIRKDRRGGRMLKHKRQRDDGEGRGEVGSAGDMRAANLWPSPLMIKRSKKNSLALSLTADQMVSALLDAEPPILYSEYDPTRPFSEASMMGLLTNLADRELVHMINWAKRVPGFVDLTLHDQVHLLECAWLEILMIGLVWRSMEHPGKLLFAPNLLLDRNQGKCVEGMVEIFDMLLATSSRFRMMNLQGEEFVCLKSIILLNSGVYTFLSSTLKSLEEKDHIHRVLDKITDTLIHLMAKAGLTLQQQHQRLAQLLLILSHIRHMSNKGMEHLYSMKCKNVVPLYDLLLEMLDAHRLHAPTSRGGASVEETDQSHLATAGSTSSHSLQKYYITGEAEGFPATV

The target of one assay is Estrogen Receptor (ER) (Homo sapiens, UniProt P03372). Briefly: residence time imaging of ER-Halo (track length survival). The assay is classed as cell-based. Conditions: track length distribution, FIG. 16G, 18E, 21E.
Assay [1] concerns the target T1, progesterone receptor (PR) (Homo sapiens, UniProt P06401).
T1 sequence (P06401 1-933): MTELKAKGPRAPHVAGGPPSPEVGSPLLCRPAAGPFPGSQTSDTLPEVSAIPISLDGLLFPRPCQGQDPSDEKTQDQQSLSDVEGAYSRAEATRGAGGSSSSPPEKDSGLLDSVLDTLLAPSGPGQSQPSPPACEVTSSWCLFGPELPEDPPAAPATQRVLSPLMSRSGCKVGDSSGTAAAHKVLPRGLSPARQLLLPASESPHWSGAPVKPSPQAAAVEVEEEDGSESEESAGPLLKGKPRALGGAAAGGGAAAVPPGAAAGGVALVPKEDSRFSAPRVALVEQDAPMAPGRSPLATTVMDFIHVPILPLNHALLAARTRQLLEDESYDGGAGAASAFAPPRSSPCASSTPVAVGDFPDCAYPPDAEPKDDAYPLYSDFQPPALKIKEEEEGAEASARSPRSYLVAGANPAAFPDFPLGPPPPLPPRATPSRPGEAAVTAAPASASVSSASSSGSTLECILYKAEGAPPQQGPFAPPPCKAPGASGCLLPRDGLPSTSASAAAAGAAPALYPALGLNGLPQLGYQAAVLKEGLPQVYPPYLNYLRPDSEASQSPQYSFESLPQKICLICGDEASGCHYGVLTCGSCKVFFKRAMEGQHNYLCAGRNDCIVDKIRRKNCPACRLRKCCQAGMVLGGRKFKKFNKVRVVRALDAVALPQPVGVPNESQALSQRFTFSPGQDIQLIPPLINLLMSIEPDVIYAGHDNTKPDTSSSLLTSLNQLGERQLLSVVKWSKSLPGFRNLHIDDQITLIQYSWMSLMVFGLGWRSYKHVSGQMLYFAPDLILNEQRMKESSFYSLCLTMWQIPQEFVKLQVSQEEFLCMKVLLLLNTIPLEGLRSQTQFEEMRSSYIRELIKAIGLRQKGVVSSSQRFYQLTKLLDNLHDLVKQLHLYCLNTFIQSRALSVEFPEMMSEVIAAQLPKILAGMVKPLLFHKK
Briefly: htSMT of Halo-PR in U2OS cells. The assay is classed as cell-based. The settings on record: 1 μM antagonist, absence or presence of cognate agonist, FIG. 36B.

For `C[C@]12CC[C@@H]3c4ccc(O)cc4C[C@@H](CCCCCCCCC[S+]([O-])CCCC(F)(F)C(F)(F)F)[C@H]3[C@@H]1CC[C@@H]2O` (some centres unmarked), the “binding times (relative ER residence time)” value on Estrogen Receptor (ER) is on record as “longer binding times compared with other ER modulators”. On to `CC#C[C@]1(O)CC[C@H]2[C@@H]3CCC4=CC(=O)CCC4=C3[C@@H](c3ccc(N(C)C)cc3)C[C@@]21C` [mifepristone], for which the “effect on PR chromatin binding (change in fbound)” value in assay [1] is given as “behaves similarly to ER antagonists”.
